pIC50: −log10 of the molar value.

The chains behind the UniProt entries cited, without tags or fusion partners.
full-length beta-catenin (Uniprot ID P35222) (human), UniProt P35222, whole entry: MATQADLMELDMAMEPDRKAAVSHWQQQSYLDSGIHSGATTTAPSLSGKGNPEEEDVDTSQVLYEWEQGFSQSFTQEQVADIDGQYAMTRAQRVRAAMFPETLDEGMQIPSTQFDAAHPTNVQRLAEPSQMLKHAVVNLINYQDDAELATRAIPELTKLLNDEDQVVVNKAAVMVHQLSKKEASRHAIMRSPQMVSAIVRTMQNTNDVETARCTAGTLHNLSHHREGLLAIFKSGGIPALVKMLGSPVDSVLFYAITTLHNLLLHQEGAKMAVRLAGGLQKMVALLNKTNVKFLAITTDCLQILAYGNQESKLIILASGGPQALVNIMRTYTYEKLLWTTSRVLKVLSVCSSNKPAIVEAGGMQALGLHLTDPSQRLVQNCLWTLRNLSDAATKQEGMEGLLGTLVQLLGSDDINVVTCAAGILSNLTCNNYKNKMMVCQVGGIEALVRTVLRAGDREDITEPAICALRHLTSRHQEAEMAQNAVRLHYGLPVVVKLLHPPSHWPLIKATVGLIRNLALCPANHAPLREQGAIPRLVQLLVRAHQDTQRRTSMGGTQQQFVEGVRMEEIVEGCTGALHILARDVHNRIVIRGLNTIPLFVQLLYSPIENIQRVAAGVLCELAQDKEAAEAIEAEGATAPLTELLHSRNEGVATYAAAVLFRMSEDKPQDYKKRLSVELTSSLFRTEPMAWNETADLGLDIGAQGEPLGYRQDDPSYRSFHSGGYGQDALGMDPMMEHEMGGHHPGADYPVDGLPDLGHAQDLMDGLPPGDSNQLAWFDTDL

This assay addresses full-length beta-catenin (Uniprot ID P35222) (human). In words: competition fluorescence polarization; displacement of 5FAM-TCF4(10-53) from full-length beta-catenin. (In general: Fluorescence polarisation rises when a labelled molecule tumbles more slowly, as on binding a larger partner.)

The substance “I-1365: Ac-PL3-Asp-Npg-B5-Asp-3COOHF-Aib-Ala-Phe-[m5Meb]Cys-PyrS2-3Thi-BztA-Cys-Ala-NH2 (peptide)” showed a pIC50 of 7.38.

As to “C-1: Ac-PL3-Asp-Npg-B5-Asp-3COOHF-Ala-Ala-Phe-Leu-PyrS2-2F3MeF-BztA-Gln-NH2 (peptide)”, the pIC50 was 7.89.

A word on the pIC50: it is −log10 of the IC50, conventionally taken in molar units.

The values are drawn from patent US20240360179A1, “STAPLED PEPTIDES AND METHODS THEREOF” (FOG PHARMACEUTICALS, INC., priority 2021, published 2024).
